Biological target: Human immunodeficiency virus type 1 protease (Human immunodeficiency virus 1, UniProt Q72874)
Assay: Inhibitory activity against HIV-1 protease

`Cc1cccc(C)c1OCC(=O)N[C@@H](Cc1ccccc1)[C@H](O)C(=O)N(Cc1ccccc1)NC(=O)COc1c(C)cccc1C` was tested, and the IC50 was 5 µM and the Ki was 5 µM.

Source: ChEMBL document CHEMBL1146608, “Design and synthesis of pseudo-symmetric HIV protease inhibitors containing a novel hydroxymethylcarbonyl (HMC)-hydrazide isostere” (Bioorg Med Chem Lett, 2003)
